# Legend:
# [1] = rats, 0.2 mg oral 5+ adenine doses, dried blood spots
# [2] = Daily 5+ ATP to rats for six days, 5+ ATP/1+ ATP ratio in dried blood spots by mass spectrometry; settings: dried blood spots from tail nicks, six day period, 100 mcg daily
# Description: Once each day, blood spot samples were taken from each rat and dried.
# The in vivo ATP pool is large, the half-life of ATP is relatively long, 3 days in rats, corresponding to about 10 days in humans.
substance,measurement,setting,value
5+ adenosine triphosphate [5+ ATP],washout half-life,[1],approximately 10 days
same,ratio of +5 ATP to +1 ATP over time,[2],increases in a predictable manner

# Reference: US20230233144A1, “Method for Determining Medication Adherence and Taggants Therefo” (The Regents of the University of Colorado, A Body Corporate, priority 2021, published 2023)
